Measurements: patent publication US20090306094A1 (Bristol-Myers Squibb Company, priority 2006, published 2009)

System: Crkl phosphorylation (BCR-ABL substrate)
Type: cell-based

Cc1nc(Nc2ncc(C(=O)Nc3c(C)cccc3Cl)s2)cc(N2CCN(CCO)CC2)n1 [dasatinib, N-(2-chloro-6-methylphenyl)-2-[[6-[4-(2-hydroxyethyl)-1-piperazinyl]-2-methyl-4-pyrimidinyl]amino]-5-thiazolecarboxamide]
Crkl phosphorylation: inhibited in a dose-dependent manner
